According to patent US20120164142A1:

Target: T1, human natriuretic peptide receptor B (NPR-B) (human), P20594
T1 chain: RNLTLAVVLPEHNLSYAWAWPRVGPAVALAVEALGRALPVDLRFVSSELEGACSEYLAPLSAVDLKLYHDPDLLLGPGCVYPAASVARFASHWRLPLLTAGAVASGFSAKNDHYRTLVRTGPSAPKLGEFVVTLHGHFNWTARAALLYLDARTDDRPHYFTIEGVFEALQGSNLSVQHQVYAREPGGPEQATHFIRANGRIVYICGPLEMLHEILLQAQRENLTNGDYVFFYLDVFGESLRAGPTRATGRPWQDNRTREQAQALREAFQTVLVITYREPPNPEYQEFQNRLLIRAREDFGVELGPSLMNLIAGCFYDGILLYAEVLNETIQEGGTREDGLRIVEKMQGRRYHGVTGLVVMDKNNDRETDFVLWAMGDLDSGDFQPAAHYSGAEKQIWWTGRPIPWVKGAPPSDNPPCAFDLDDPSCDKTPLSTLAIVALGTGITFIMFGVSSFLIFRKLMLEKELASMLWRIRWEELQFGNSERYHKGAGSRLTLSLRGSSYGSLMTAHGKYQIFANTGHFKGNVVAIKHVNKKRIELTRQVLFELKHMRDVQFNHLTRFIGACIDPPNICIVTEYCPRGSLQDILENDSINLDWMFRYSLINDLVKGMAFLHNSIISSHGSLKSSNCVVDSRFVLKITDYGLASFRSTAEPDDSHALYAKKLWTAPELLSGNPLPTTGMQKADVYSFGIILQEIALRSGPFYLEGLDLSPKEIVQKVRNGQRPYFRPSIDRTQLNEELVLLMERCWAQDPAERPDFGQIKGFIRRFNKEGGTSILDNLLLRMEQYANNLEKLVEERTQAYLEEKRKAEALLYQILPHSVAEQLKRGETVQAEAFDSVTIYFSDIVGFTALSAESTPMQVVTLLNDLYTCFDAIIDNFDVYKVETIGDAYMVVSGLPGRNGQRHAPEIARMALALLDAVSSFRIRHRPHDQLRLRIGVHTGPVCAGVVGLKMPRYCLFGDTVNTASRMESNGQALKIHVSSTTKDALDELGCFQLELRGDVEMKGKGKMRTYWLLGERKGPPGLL
Experiment: cell-based or functional assay

Q: With EEEEEEASTSPANPQPAASSPGLSKGCFGLKLDRIGSMSGLGC (modifications not checked) [C2(E6) [BC2]] as the binder, how does the % Efficacy read?
A: Its % Efficacy is 97%.

Q: What about the EC50 (nM), NPR-B whole cell cGMP assay of the same binder?
A: Its EC50 (nM), NPR-B whole cell cGMP assay is 720 nM.

Q: What about the EC50 Ratio versus CNP22 of the same binder?
A: Its EC50 Ratio versus CNP22 is 49.

Q: And the Rescue Ratio Average?
A: Its Rescue Ratio Average is 803.

Q: With EEEEEEPSSAAPQPNAPSTSAGLSKGCFGLKLDRIGSMSGLGC (modifications not checked) [C3(E6) [BC3]] as the binder, how does the % Efficacy read?
A: The % Efficacy was 67%.

Q: What about the EC50 (nM), NPR-B whole cell cGMP assay of the same binder?
A: Its EC50 (nM), NPR-B whole cell cGMP assay is 990 nM.

Q: And the EC50 Ratio versus CNP22?
A: Its EC50 Ratio versus CNP22 is 67.4.

Q: What about the Rescue Ratio Average of the same binder?
A: Its Rescue Ratio Average is 199.
